# Molecular target: Gal4 DNA binding domain fused to the LBD of LXRα in HEK293 cells (Homo sapiens (Human), UniProt Q13133)
# Amino acid sequences for entries named in this document (tags omitted). Residues count along the entry.
# UniProt Q13133, 209-447: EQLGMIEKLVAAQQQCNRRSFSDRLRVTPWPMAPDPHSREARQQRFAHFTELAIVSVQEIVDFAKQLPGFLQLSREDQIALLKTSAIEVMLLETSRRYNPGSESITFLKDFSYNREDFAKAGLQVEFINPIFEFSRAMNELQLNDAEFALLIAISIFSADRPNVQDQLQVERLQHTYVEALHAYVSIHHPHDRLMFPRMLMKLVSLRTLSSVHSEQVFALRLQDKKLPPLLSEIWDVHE
# Test: LXR luciferase transcriptional reporter gene assay, agonist mode, LXRα
# Format: cell-based
# Conditions: read-out: Cell LXRα EC50
smiles,measurement,value
"CS(=O)(=O)c1cccc(N2CCN(Cc3ccc(C(F)(F)F)o3)[C@H](c3ccccc3)C2)c1 [46-65, (R)-4-(3-(methylsulfonyl)phenyl)-2-phenyl-1-((5-(trifluoromethyl)furan-2-yl)methyl)piperazine]",EC50,> 20 µM
